Read-outs that look alike come from different tables or passages of the source.
Tests used:
Experiment in all cases: AUC
[1] = target: Gallus gallus NET-1 with truncated C-terminal domain (aa 26-458) (Gallus gallus) (UniProt Q90922)
[2] = target: UNC-5B soluble extracellular domains (aa 25-300) labelled with Alexa Fluor 488 (UniProt Q8K1S3)
[3] = target: Gallus gallus NET-1 with truncated C-terminal domain (aa 26-458) (Gallus gallus) (UniProt Q90922); remark: listed apart in the source
[4] = target: UNC-5B soluble extracellular domains (aa 25-300) labelled with Alexa Fluor 488 (UniProt Q8K1S3); remark: listed apart in the source

Gallus gallus NET-1 with truncated C-terminal domain (aa 26-458) (from UniProt Q90922 26-458) (ligand)
Kd [1]: 137 µM
stoichiometry N [2]: 1
Kd [3]: 17.6 µM
stoichiometry N [4]: 1

Source: paper PMC10509325
